The values below come from US20050054559A1, “Compounds for sustained release of orally delivered drugs” (priority 2000, published 2005).

The chains behind the UniProt entries cited, without tags or fusion partners.
UniProt Q12908, whole entry: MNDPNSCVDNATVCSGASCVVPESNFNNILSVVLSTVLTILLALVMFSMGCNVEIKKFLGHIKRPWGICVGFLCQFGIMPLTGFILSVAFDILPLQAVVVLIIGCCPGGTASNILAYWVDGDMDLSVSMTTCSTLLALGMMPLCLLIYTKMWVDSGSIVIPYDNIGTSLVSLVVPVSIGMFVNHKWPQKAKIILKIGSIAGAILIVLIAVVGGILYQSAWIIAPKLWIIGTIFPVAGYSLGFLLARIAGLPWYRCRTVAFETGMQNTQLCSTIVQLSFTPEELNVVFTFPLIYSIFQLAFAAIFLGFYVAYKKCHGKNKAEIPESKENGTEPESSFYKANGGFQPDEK
UniProt Q14973, whole entry: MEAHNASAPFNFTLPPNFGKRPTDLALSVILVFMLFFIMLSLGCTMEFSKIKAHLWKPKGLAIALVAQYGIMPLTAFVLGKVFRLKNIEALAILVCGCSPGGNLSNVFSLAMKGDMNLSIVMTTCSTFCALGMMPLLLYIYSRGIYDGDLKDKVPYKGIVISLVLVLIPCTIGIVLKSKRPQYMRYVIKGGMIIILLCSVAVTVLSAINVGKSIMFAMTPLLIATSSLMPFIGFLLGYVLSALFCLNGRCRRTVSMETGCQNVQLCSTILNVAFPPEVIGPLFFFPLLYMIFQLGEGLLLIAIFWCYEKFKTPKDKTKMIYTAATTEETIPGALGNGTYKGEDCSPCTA

The structures appear in SMILES notation.

As a reminder, the IC50 is the midpoint of a concentration-inhibition curve. As a reminder, the EC50 is the concentration that produces a half-maximal response. Low readings indicate higher potency in that assay, high ones lower potency in that assay.

Type in all cases: cell-based
Assay [1] deals with T1, IBAT (Homo sapiens, UniProt Q12908). Nature of the assay: Inhibition of radiolabeled taurocholate uptake in IBAT-transfected CHO cells. As to conditions: radiolabeled competition assay in transporter-expressing CHO cells.
The target of assay [2] is T2, LBAT (Homo sapiens, UniProt Q14973). Briefly: Inhibition of radiolabeled taurocholate uptake in LBAT-transfected CHO cells. As to conditions: radiolabeled competition assay in transporter-expressing CHO cells.
Assay [3] concerns the target T1, IBAT. Nature of the assay: Electrogenic transport in Xenopus oocytes expressing IBAT. The note with it: for % Max. (GDC): relative to glycodeoxycholate.
Assay [4] has as its target T2, LBAT. Briefly: Electrogenic transport in Xenopus oocytes expressing LBAT.

Compound `COC(=O)CC1(CNC(=O)OCCCCCC(=O)O[C@@H]2CC[C@@]3(C)[C@@H](C2)C[C@@H](O)[C@@H]2[C@@H]3C[C@H](O)[C@]3(C)[C@@H]([C@H](C)CCC(=O)NCC(=O)O)CC[C@@H]23)CCCCC1` displayed an IC50 in assay [1] of 7 µM. This compound also gave an IC50 in assay [2] of 1.7 µM. Besides, in assay [3], the EC50 came out at 58 µM and the “% Max. (GDC)” value came out at 28%.

In the case of `COC(=O)CC1(CNC(=O)O[C@@H]2CC[C@@]3(C)[C@@H](C2)C[C@@H](O)[C@@H]2[C@@H]3C[C@H](O)[C@]3(C)[C@@H]([C@H](C)CCC(=O)O)CC[C@@H]23)CCCCC1`, the IC50 is over 100 µM in assay [1] and 0.7 µM in assay [2]. Further, the results for the EC50 in assay [3] and in assay [4] were over 100 µM and 31 µM, respectively. The “% Max. (GDC)” value in assay [3] was 0%; in assay [4] (relative to glycodeoxycholate), 140%.
